Target: T1, PEAK1^IDR1 phosphorylated by Src (human, UniProt Q9H792 1082-1746, phosphotyrosine at 1107 (by Src in vitro, MS/MS); biotin (EZ-Link NHS-PEG4-Biotin))
T1 chain: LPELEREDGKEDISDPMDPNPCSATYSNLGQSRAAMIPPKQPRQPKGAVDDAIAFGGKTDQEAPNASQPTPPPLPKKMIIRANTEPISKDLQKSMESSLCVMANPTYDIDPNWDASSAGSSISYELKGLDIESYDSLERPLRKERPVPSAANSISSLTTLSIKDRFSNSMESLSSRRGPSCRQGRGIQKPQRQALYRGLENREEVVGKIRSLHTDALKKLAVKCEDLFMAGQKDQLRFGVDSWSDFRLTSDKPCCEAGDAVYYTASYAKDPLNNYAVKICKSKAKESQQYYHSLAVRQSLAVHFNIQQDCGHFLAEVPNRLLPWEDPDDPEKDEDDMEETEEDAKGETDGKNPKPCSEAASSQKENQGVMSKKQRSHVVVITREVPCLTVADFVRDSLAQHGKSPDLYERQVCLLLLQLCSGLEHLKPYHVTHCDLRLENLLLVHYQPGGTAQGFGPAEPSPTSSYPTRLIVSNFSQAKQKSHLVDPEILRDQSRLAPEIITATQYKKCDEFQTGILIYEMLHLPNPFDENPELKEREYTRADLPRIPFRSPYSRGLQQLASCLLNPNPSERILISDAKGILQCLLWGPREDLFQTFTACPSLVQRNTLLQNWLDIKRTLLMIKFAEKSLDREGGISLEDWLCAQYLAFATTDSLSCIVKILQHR
Assay: SPR

B1: Grb2 SH2 domain (Grb2^SH2) (domain or fragment)
chain: WFFGKIPRAKAEEMLSKQRHDGAFLIRESESAPGDFSLSVKFGNDVQHFKVLRDGAGKYFLWVVKFNSLNELVDYHRSTSVSRNQQIFLRDIE
modifications: biotin (EZ-Link NHS-PEG4-Biotin) where immobilised for SPR
  Kd: 13.3 µM
